Laboratory results: ChEMBL document CHEMBL1148248

By UniProt entry, the sequences of proteins in these tests, tags left out.
UniProt P09874, whole entry: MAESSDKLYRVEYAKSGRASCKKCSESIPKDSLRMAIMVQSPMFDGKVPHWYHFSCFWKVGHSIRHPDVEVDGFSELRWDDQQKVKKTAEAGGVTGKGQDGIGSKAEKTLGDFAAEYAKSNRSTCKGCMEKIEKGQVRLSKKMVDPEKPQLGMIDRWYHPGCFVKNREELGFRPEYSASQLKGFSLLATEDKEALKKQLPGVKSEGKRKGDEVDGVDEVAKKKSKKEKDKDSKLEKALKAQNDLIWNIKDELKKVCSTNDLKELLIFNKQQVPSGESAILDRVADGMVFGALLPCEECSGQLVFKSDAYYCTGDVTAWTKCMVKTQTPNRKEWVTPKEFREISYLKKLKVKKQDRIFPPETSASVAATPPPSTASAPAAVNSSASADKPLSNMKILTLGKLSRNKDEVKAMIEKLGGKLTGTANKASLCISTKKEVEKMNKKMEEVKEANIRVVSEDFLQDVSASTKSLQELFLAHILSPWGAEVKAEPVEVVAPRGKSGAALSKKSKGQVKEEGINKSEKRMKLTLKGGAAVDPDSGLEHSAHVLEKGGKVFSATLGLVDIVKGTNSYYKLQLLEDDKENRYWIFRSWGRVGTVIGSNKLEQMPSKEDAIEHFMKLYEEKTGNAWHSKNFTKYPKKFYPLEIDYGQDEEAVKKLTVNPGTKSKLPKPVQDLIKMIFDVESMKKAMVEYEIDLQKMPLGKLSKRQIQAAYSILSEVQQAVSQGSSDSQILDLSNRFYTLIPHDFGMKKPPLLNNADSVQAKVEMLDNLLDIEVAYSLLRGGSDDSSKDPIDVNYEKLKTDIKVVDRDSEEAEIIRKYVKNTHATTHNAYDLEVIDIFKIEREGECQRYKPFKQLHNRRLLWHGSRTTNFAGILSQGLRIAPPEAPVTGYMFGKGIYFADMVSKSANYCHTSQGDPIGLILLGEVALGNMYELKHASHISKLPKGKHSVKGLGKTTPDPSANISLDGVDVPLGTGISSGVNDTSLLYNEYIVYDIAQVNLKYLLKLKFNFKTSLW

Target: Poly [ADP-ribose] polymerase 1 (Homo sapiens, UniProt P09874)

Row | Structure (SMILES) | Ki [nM]
1 | COc1ccc(CN(C)c2ccc(-c3nc4c(C(N)=O)cccc4[nH]3)cc2)cc1 | 5.9
2 | NC(=O)c1cccc2[nH]c(-c3cccc(CN4CCCCC4)c3)nc12 | 11.7
